Test results from patent publication US20170340698A1, “CYCLIC PEPTIDE SPECIFICALLY BINDING TO APOPTOTIC CELLS AND USE THEREOF” (KYUNGPOOK NATIONAL UNIVERSITY INDUSTRY-ACADEMIC COOPERATION …, priority 2014, published 2017).

Tested on: SNU-16 stomach tumor xenografts
Experiment: Anti-tumor treatment of mice: tumor volume, tumor weight, TUNEL staining
Type: in vivo
Settings: cisplatin 5 mg/kg i.p. once per week, cetuximab 1.5 mg/kg i.p. twice per week, two weeks; measured over three weeks
Method: Eight-week old female athymic (nu/nu) Balb/c mice were purchased from Orient laboratories (Seongnam, Korea) and were housed under specific-pathogen-free (SPF) conditions with laboratory chow and water ad libitum. Stomach tumor xenografts were established by subcutaneously injecting 1×10^7 SNU-16 cells in 100 ml saline into the right flank. Tumors were allowed to reach 50-60 mm^3 of volume before randomization and initiation of treatment. […] Changes in tumor size were measured using an automatic caliper over three weeks. Tumor volumes were calculated using the formula: volume=(length×width×height)/2. Tumor weights were measured after isolation of tumor mass.
After in vivo imaging, mice were euthanized three weeks after the initiation of anticancer drug treatment, and the tumors were removed and frozen quickly in O.C.T. embedding medium (Sakura Finetechnical, Tokyo, Japan). […] The stained tissue sections were observed under a fluorescence microscope (Carl Zeiss, Jena, Germany).
To examine anti-tumor growth effect by cisplatin or cetuximab alone and in combination, tumor volumes and weights after the drug treatment were measured.

cetuximab: anti-epidermal growth factor receptor antibody
tumor volume compared with control group treated without drug: reduced tumor volumes
